{"source": "patent US4201725A", "about": "“Secondary amines” (priority 1974, dated 1980)", "key": {"[1]": {"experiment": "Tremor-inducing action", "settings": "0.031 m mol/kg oral, 30 min, hydrochloride form"}, "[2]": {"tested_on": "neuroleptic-induced catatonia", "experiment": "Suppression of neuroleptic (prochlorperazine)-induced catatonia (curative treatment)", "format": "in vivo, rat (male, OFA strain)", "settings": "times more active than amantadine", "procedure": "Batches of 5 male rats of the OFA strain were given 12.5 mg/kg of prochlorperazine by intraperitoneal route. Fifty-five minutes later, an oral dose in aqueous solution of the compound to be studied was administered to all the animals with the exception of the control group. The progress of the catatonia was noted following the same scale as that used in the tests described above."}, "[3]": {"tested_on": "neuroleptic-induced catatonia", "experiment": "Inhibition of neuroleptic (prochlorperazine)-induced catatonia (preventive)", "format": "in vivo, rat (male, OFA strain)", "settings": "times more active than amantadine", "procedure": "The blocking of dopaminergic receptors by neuroleptics in the extra-pyramidal system induces catatonia in the rat. Catatonia is differentiated from sedative properties by means of the test used hereabove for reserpine-induced catatonia. The same system of scoring was also employed in the present case.\nAn oral dose of the compound to be studied in aqueous solution was administered to batches of 10 male rats of the OFA strain weighing about 150 to 200 g.\nThree hours after the injection of this latter compound, catatonia was measured. An identical trial was also carried out with control animals which received prochlorperazine but none of the compounds under study.\nThe scoring system used was that given hereabove for Table I."}, "[4]": {"tested_on": "reserpine-induced catatonia", "experiment": "Inhibition of reserpine-induced catatonia (preventive, oral compound 30 min before reserpine)", "format": "in vivo, rat (male, OFA strain)", "procedure": "After sufficient doses of reserpine have been administered to the rat, a series of symptoms occur, more particularly ptosis, catatonia and a drop in central temperature. These symptoms are caused by the depletion of the intragranular reserve pool of biogenetic amines at the synaptic terminals.\nAn oral dose of the compound to be studied in aqueous solution was administered to batches of 10 male rats of the OFA strain weighing about 150 to 200 g. Thirty minutes later a dose of 5 mg/kg of reserpine was given by intraperitoneal route. Three hours after the injection of reserpine, the animals were suspended by the four paws to a horizontally stretched wire fixed at 15 cm from the ground. The catatonia animals were those which maintained the position so given for at least 30 seconds. […] The maximum score was therefore 10 per batch. An identical trial was undertaken with control animals which received reserpine but none of the compounds being studied."}, "[5]": {"tested_on": "reserpine-induced catatonia", "experiment": "Suppression of reserpine-induced catatonia (curative treatment)", "format": "in vivo, rat (male, OFA strain)", "settings": "times more active than amantadine", "procedure": "Batches of 5 male rats of the OFA strain, weighing 150 to 200 g were given 5 mg/kg of reserpine by intraperitoneal route. One hour and 45 minutes later, namely when the animals were in a state of catatonia, an aqueous dose of the compound to be studied was administered by oral route to all the animals with the exception of the control group.\nThe progress of the catatonia was then noted following the scale used in the tests described hereabove.\nThe maximum score was thus 5 per batch which means that all the animals of the batch were considered to be still in a state of catatonia."}}, "data": [{"smiles": "CCCC(N)(CCC)CCC", "note": "[Compound 1]", "values": [{"measurement": "number of animals presenting tremors (denominator of ratio)", "setting": "[1]; batches of 10 rats", "value": 10}, {"measurement": "ratio of index of reserpine-induced catatonia inhibition to number of animals presenting tremors", "setting": "[1]", "value": 0.40}, {"measurement": "activity relative to amantadine, curative, neuroleptic-induced catatonia", "setting": "[2]", "value": "at least 16 times"}, {"measurement": "activity relative to amantadine, neuroleptic-induced catatonia", "setting": "[3]", "value": "twenty times more active"}, {"measurement": "index of reserpine-induced catatonia (numerator of ratio)", "setting": "[4]; 0.031 m mol/kg oral, hydrochloride form", "value": "4 (represents 100% inhibition of catatonia in comparison with the controls)"}, {"measurement": "activity relative to amantadine, reserpine-induced catatonia", "setting": "[4]; dose ratio to amantadine, equal effect", "value": "twenty times"}, {"measurement": "activity relative to amantadine, curative, reserpine-induced catatonia", "setting": "[5]", "value": "at least 32 times"}]}]}
